# Where “and” joins values, the source holds several entries; their conditions need not be identical. Identical values can stand only once. For some of these results: The hits were mostly taken out for another list; the other results follow. Only a part is listed here, and it is no random draw. Calls of active or inactive are those of the source. Unless noted, calls come from the whole dose curve; as a rule, active = well fitted curve in the direction sought with a large enough effect in the repeat runs; inconclusive = weak or mixed curves; inactive = no such curve, though single readings can be large; an effect the other way counts as inactive or inconclusive.
# Chains of the proteins cited; added tags and fusions are not shown. Lines headed by an entry give the natural chain unless they say otherwise; changes in a name come on top.
# UniProt P10275: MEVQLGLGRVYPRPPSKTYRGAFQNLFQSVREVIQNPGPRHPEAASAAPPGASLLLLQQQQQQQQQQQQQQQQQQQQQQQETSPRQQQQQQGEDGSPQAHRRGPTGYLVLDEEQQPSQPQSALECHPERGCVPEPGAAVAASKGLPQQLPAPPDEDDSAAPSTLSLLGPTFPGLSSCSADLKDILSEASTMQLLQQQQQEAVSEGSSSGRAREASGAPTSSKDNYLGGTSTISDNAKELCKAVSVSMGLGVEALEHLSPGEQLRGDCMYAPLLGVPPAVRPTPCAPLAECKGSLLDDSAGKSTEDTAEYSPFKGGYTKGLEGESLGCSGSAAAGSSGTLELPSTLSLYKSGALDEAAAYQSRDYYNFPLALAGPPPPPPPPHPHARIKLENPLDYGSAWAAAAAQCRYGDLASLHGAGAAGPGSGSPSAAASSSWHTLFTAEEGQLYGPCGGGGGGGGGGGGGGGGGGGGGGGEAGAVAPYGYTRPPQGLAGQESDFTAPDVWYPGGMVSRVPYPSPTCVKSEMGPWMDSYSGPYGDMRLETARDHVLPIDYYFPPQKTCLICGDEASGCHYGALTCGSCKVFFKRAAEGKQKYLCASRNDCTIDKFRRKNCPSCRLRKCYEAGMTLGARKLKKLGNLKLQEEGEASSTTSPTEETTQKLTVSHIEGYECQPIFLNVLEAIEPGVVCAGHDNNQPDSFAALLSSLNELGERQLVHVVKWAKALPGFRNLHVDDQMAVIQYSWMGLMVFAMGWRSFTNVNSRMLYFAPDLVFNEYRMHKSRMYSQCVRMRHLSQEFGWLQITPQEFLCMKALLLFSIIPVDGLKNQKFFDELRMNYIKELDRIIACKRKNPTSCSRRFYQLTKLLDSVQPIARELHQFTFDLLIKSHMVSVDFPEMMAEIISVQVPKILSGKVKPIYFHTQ
# UniProt P10635, whole entry, looked up: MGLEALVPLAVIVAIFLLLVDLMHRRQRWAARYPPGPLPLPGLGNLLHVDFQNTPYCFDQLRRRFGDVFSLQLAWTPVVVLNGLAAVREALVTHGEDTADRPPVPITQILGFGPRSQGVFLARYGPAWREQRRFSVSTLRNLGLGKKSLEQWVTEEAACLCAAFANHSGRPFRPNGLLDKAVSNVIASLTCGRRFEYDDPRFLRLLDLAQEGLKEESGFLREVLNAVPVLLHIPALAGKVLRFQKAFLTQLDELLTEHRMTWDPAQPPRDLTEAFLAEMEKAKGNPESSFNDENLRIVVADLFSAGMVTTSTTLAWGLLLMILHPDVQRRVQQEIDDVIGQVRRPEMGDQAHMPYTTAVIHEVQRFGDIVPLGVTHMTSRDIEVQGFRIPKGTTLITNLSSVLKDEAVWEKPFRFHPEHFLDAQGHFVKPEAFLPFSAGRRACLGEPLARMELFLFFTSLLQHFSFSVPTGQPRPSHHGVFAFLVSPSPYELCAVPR
# UniProt P33261, whole entry, looked up: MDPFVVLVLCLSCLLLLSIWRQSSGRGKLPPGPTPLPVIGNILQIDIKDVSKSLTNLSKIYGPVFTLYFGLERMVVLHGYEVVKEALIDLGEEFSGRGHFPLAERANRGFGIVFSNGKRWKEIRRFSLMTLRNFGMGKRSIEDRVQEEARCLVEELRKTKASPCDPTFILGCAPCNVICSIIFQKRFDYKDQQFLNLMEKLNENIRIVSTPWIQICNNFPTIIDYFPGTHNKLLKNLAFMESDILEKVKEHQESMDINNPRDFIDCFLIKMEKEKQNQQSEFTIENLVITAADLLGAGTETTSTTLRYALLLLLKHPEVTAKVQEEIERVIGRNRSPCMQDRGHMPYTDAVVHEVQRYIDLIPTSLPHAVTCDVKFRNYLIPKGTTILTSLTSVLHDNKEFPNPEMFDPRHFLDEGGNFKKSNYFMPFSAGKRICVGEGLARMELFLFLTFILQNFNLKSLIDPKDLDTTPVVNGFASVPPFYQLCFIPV
# UniProt Q12809: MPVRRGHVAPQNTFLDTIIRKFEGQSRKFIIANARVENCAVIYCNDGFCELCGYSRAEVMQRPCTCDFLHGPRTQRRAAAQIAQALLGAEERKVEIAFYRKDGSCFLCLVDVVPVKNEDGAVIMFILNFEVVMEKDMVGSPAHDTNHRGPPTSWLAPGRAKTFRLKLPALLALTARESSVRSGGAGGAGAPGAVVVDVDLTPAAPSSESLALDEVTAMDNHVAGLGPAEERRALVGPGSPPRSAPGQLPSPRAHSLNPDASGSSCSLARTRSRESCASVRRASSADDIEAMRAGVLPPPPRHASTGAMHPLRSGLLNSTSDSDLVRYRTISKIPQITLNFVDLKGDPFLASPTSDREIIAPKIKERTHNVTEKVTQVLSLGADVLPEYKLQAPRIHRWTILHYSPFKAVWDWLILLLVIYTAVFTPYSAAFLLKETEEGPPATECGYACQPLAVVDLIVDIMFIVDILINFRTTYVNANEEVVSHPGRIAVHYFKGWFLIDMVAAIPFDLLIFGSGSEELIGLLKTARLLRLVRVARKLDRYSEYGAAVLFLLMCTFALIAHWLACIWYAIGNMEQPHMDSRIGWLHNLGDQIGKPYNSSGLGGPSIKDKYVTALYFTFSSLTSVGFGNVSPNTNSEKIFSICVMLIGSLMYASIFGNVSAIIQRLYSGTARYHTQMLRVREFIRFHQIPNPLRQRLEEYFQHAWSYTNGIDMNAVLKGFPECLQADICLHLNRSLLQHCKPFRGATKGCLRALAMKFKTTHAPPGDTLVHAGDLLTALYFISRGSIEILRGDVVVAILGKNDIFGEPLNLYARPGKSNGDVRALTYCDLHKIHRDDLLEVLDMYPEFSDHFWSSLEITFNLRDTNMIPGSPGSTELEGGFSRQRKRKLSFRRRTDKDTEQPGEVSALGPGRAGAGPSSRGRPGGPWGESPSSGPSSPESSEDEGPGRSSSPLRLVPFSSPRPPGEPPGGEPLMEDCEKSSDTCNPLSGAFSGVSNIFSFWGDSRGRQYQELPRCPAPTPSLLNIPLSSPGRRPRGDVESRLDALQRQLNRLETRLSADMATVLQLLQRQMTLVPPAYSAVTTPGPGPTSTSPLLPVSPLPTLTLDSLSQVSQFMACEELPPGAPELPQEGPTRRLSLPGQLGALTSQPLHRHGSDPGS
# UniProt P03372, whole entry, looked up: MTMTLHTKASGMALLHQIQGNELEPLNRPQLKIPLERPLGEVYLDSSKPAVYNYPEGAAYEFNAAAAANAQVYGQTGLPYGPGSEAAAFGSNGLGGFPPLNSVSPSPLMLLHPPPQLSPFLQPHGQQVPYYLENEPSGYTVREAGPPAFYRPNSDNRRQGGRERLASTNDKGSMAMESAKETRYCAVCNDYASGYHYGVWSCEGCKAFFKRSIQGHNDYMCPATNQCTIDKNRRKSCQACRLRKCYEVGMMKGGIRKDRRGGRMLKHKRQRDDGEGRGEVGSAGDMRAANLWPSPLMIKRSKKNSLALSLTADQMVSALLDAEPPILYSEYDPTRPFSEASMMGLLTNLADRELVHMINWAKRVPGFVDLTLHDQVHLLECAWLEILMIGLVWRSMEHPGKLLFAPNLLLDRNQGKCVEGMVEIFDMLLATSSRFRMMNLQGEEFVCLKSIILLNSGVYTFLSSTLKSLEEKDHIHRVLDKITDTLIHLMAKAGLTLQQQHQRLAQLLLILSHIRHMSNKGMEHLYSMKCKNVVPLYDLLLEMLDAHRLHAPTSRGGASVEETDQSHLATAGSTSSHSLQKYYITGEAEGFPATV
# Legend:
# [1] = target: Androgen receptor (Homo sapiens) (UniProt P10275); test: qHTS assay to identify small molecule agonists of the androgen receptor (AR) signaling pathway using the MDA cell line (AID 743040; note: % is set by controls: 0 for no effect and ±100 for the full control effect; nearly all actives have a fitted effect of over 20% in size); conditions: MDA-kb2 AR-luc cells, MMTV luciferase, 16 h; at 70.3 µM (top of the series); stronger effect = higher value
# [2] = target: Androgen receptor (Homo sapiens) (UniProt P10275); test: qHTS assay to identify small molecule antagonists of the androgen receptor (AR) signaling pathway using the MDA cell line (AID 743042; note: potency is the fitted concentration of half-maximal effect; nearly all actives have a fitted effect of over 55% in size); conditions: MDA-kb2 AR-luc, MMTV luciferase, R1881 antagonist, 16 h; series mostly up to 70.3 µM
# [3] = target: Nuclear receptor subfamily 1 group I member 2 (Homo sapiens) (UniProt O75469); test: CYP3A4 induction through human pregnane X receptor (PXR) by small molecules, qHTS assay (AID 1346984); conditions: DPX-2 HepG2 PXR, CYP3A4-luciferin luminescence, 24 h; series mostly up to 46.1 µM; note: nearly all actives have a fitted effect of over 40% in size; note: potency is the fitted concentration of half-maximal effect; for activation: % is set by controls: 0 for no effect and ±100 for the full control effect
# How it was run: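 Induction measured in HepG2-based DPX-2 cells co-expressing human PXR and a CYP3A4 promoter-driven luciferase. After a 24-hour compound exposure, cells received CYP3A4 luciferin substrate at 3uM final for 3 hours, and light output was then recorded.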
# [4] = target: Nuclear receptor subfamily 1 group I member 2 (Homo sapiens) (UniProt O75469); test: Human pregnane X receptor (PXR) activation by small molecules, qHTS assay (AID 1346985); conditions: DPX-2 HepG2 CYP3A4-luciferase, 24 h; series mostly up to 38.3 µM; note: nearly all actives have a fitted effect of over 40% in size; note: potency is the fitted concentration of half-maximal effect; for activation: % is set by controls: 0 for no effect and ±100 for the full control effect
# [5] = target: Cytochrome P450 2D6 (Homo sapiens) (UniProt P10635); test: Cytochrome P450 Family 2 Subfamily D Member 6 (CYP2D6) small molecule antagonists: luciferase reporter qHTS assay (AID 1671196); conditions: P450-Glo CYP2D6 enzyme assay, luciferin luminescence, 1 h; note: potency is the fitted concentration of half-maximal effect; nearly all actives have a fitted effect of over 50% in size
# How it was run: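 Test chemicals meet CYP2D6 plus proluciferin substrate (10 min, RT); NADPH regenerating solution then drives turnover for 1 h. Detection reagent halts the reaction; luminescence measured after 20 min.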
# [6] = target: Cytochrome P450 2C19 (Homo sapiens) (UniProt P33261); test: Cytochrome P450 Family 2 Subfamily C Member 19 (CYP2C19) small molecule antagonists: luciferase reporter qHTS assay (AID 1671197); conditions: P450-Glo CYP2C19 enzyme, luciferin luminescence, 1 h; note: potency is the fitted concentration of half-maximal effect; nearly all actives have a fitted effect of over 65% in size
# How it was run: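 Inhibition of CYP2C19 was scored from loss of luminescence in a P450-Glo proluciferin substrate assay, NADPH-started and run 1 h at 37C, with ketoconazole as positive control.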
# [7] = target: Nuclear receptor subfamily 1 group I member 2 (Homo sapiens) (UniProt O75469); test: Human pregnane X receptor (PXR) small molecule agonists, qHTS assay (AID 1346982); conditions: PXR-Luc HepG2, CYP3A4 luciferase reporter, 24 h; series mostly up to 42.5 µM; note: % is set by controls: 0 for no effect and ±100 for the full control effect; nearly all actives have a fitted effect of over 35% in size
# How it was run: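 Reporter HepG2 cells expressing PXR-Luc are cultured in charcoal-stripped FBS (5%), treated with compounds for 24 hr at 37 C, and assayed by ONE-Glo luminescence after 30 min at room temperature.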
# [8] = target: Voltage-gated inwardly rectifying potassium channel KCNH2 (Homo sapiens) (UniProt Q12809); test: Human Ether-a-go-go-Related Gene (hERG) channel small molecule antagonists: fluorescence cell-based qHTS assay (AID 1671200); conditions: hERG-U2OS cells, FluxOR thallium flux fluorescence; note: potency is the fitted concentration of half-maximal effect; nearly all actives have a fitted effect of over 50% in size
# How it was run: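 Measured: Tl+ flux via fluorescence (480/540 nm) in hERG-expressing U2OS cells after 1 h dye loading at room temperature.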
# [9] = target: Estrogen receptor (Homo sapiens) (UniProt P03372); test: qHTS assay to identify small molecule antagonists of the estrogen receptor alpha (ER-alpha) signaling pathway (AID 743069; active = well fitted curve in the direction sought with a large enough effect in the signal ratio in the repeat runs, not every such curve was filed as active; inconclusive = weak or mixed curves, or effect the other way; inactive = no such curve, though single readings can be large or run the other way; the % refers to the signal ratio; note: % is set by controls: 0 for no effect and ±100 for the full control effect); conditions: HEK293 ER-alpha-UAS-bla, beta-lactamase ratio, antagonist mode; series mostly up to 69.4 µM
# [10] = target: Estrogen receptor (Homo sapiens) (UniProt P03372); test: qHTS assay to identify small molecule agonists of the estrogen receptor alpha (ER-alpha) signaling pathway (AID 743075; calls by dose curve;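 note: HEK293 GripTite cells with ER-alpha and UAS-driven beta-lactamase reporter; potency is the fitted concentration of half-maximal effect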); conditions: HEK293 ER-alpha-UAS-bla, beta-lactamase FRET ratio, 18 h; series mostly up to 70.1 µM
structure (smiles),measurement,setting,value
CCNC(=O)[C@@H]1CCCN1C(=O)[C@H](CCCN=C(N)N)NC(=O)[C@H](CC(C)C)NC(=O)[C@@H](Cc1c[nH]c2ccccc12)NC(=O)[C@H](Cc1ccc(O)cc1)NC(=O)[C@H](CO)NC(=O)[C@H](Cc1c[nH]c2ccccc12)NC(=O)[C@H](Cc1cnc[nH]1)NC(=O)[C@@H]1CCC(=O)N1,activity change,[1],inactive: -12.6%
same,Potency,[2],active: 6.68 µM
CC1=C(C(=O)O)N2C(=O)[C@@H](NC(=O)[C@H](N)c3ccc(O)cc3)[C@H]2SC1,Potency,[3],inactive
same,Potency,[4],inactive
C#C[C@]1(O)CC[C@H]2[C@@H]3CCC4=Cc5oncc5C[C@]4(C)[C@H]3CC[C@@]21C,Potency,[5],active: 20 µM and active: 12.3 µM
CCN(CC)C(=S)SSC(=S)N(CC)CC,Potency,[6],active: 15.9 µM and active: 5.15 µM and active: 3.89 µM
CC(=O)OCC1=C(C(=O)O)N2C(=O)[C@@H](NC(=O)CSc3ccncc3)[C@H]2SC1,Potency,[7],inactive
same,Potency,[3],inactive
same,Potency,[4],inactive
O[C@@H](c1cc(C(F)(F)F)nc2c(C(F)(F)F)cccc12)[C@H]1CCCCN1,Potency,[8],active: 21.3 µM
CN1CCC[C@@H]1Cc1c[nH]c2ccc(CCS(=O)(=O)c3ccccc3)cc12,Potency,[3],inactive
same,Potency,[4],active: 15.8 µM
CN1CCC[C@@H]1CCO[C@](C)(c1ccccc1)c1ccc(Cl)cc1,Potency,[3],active: 15.8 µM
same,Potency,[4],active: 25.1 µM
CC[C@H](C)[C@@H]1NC(=O)[C@H](Cc2ccc(O)cc2)NC(=O)[C@@H](N)CSSC[C@@H](C(=O)N2CCC[C@H]2C(=O)N[C@@H](CC(C)C)C(=O)NCC(N)=O)NC(=O)[C@H](CC(N)=O)NC(=O)[C@H](CCC(N)=O)NC1=O,Potency,[9],inactive
same,Potency,[10],active: 16.9 µM [inconclusive]

# — PubChem BioAssay (Tox21)
